Values of other authors, collected in patent US6100254A, “Inhibitors of protein tyrosine kinases” (Board of Regents, The University of Texas System, priority 1997, dated 2000).

Settings: in vivo; cited from earlier work

Which oral absorption does the source give for `O=C(O)CCCc1ccc(N(CCCl)CCCl)cc1` [Chlorambucil, 4-[bis(2-chlorethyl)amino]benzenebutanoic acid] here?
Its oral absorption is “rapidly and completely absorbed”.
